Values quoted from earlier work, collected in patent US7247438B1, “Methods of identifying agents which enhance caspase activity” (priority 1997, dated 2007).

Biological target: T1, caspase-3 (Homo sapiens, UniProt P42574)
T1 sequence (P42574 29-175 limits assumed): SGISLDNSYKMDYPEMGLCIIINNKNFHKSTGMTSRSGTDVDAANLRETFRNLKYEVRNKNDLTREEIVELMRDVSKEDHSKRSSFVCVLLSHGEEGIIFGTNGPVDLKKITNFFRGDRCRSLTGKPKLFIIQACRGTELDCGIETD
T1 sequence (P42574 176-277 limits assumed): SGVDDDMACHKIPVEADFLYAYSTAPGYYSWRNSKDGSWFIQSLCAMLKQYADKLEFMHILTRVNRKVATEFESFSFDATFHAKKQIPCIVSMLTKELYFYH
Settings: caspase-3 versus caspase-1; cited from earlier work

Compound: CC(=O)N[C@@H](CC(=O)O)C(=O)N[C@@H](CCC(=O)O)C(=O)N[C@H](C(=O)N[C@H](C=O)CC(=O)O)C(C)C [Ac-DEVD-CHO]
- times better inhibition of caspase-3 than caspase-1: 49 times
